In general, CC50 refers to the concentration that lowers cell viability or growth by half. A lower CC50 goes with greater toxicity to the cells. One may read the Kd as the free concentration of one partner at which half of the binding sites on the other are occupied at equilibrium, for simple one-to-one binding. Higher therefore signals lower affinity. One may read the IC50 as the concentration that gives 50% inhibition. For orientation: EC50 means the midpoint of the concentration-response curve. The low end stands for higher potency in that assay, the high end for lower potency in that assay.

Series [1] is described as follows: Cytotoxicity against human NCI-H460 cells incubated for 72 hrs by CCK-8 assay. A general note: Tetrazolium dyes change colour on reduction, which living cells bring about.
Series [2] has as its target T1, Replicase polyprotein 1ab (Severe acute respiratory syndrome coronavirus 2, UniProt P0DTD1).
The target of series [3] is T1, Replicase polyprotein 1ab. The source holds these as a separate data set.
In a further series the test system is A549. The series can be described thus: cells. The following applies: Homo sapiens, A549, 72 h.
A short description of series [4]: in vitro. To be noted: human, Huh7.5 cells.
A short description of series [5]: in vitro. To be noted: human, Huh-7 cells.
The test system of another series is Human coronavirus OC43. The series can be described thus: microbe, parasite or virus in culture. The following applies: Betacoronavirus 1, VR-1558, NCI-H460, 72 h.

Regarding `CN(C)C1CN(Cc2ccc(NC(=O)c3ccc(OCCC(F)(F)F)c([N+](=O)[O-])c3)cc2C(F)(F)F)C1`, the values for the CC50 at 72 h (in series [1]; in “in vitro [4]”; in “in vitro [5]”) were 67 µM, greater than 50 µM and greater than 50 µM, respectively. Also, the Kd in series [2] came to 11.8 µM. The compound also showed an IC50 in series [3] of 38.3 µM. For the same compound, in the series on A549, the CC50 is greater than 100 µM. Also, the concentration giving a half-maximal response (EC50) with Human coronavirus OC43 was 2.13 µM.
